Results as given in PMC12064818, “A general assay platform to study protein pharmacology using ligand-dependent structural dynamics” (Nature Communications, 2025).

Experiments:
PKA-N-HiBiT = PKA-N-HiBiT (Homo sapiens, UniProt P17612)
[1] = biological target: T1, ABL1-N-HiBiT kinase domain (Homo sapiens, UniProt P00519); assay: ABL1 peptide phosphorylation, Kinase-Glo Plus (KGP) assay, ABL1-N-HiBiT
[2] = biological target: T1, ABL1-N-HiBiT kinase domain

ABL1 KGP pIC50 [1]	IC50 ([1]; read-out: ABL1 KGP Ave IC50)	ABL1 SDR pSDR50 [2]	SDR Ave Max Response [2]	EC50 ([2]; read-out: SDR Ave SDR50)	Compound	SDR Ave Max Response (PKA-N-HiBiT)
–	–	–	–	–	CCN1CCN(Cc2ccc(NC(=O)Nc3ccc(Oc4cc(NC)ncn4)cc3)cc2C(F)(F)F)CC1 [AST-487]	24.95
4.79	17.5 µM	6.21	56.54	660 nM	Cc1ccc(NC(=O)c2ccc(CN3CCN(C)CC3)cc2)cc1Nc1nc(-c2cccnc2)cs1 [Masitinib]	–
